The values that follow are results of earlier work, collected in patent US20100062043A1, “Methods, Systems and Devices for Administration of Chlorine Dioxide” (priority 2008, published 2010).

The conditions of the series: chlorite ion/chlorous acid equilibrium; background statement.

The term pKa denotes the negative logarithm of the acid dissociation constant. Turning to chlorous acid, the pKa is 1.8.
